Target: human TrkA (Homo sapiens (Human), UniProt P04629)
Assay: Human TrkA inhibition assay (Test Example 2)
Method: Seven point five μL per well of human TrkA (PV3144, Lifetechnologies, final concentration: 1 nmol/L) suspended in the assay buffer (100 mmol/L 4-(2-hydroxyethyl)-1-piperazineethanesulfonic acid (HEPES), 10 mmol/L magnecium chloride, 0.003 vol % Brij-35, 0.004 vol % Tween20 and 1 mmol/L dithiothreitol (DTT)) was applied in a 384 well plate and the plate was pre-incubated for 15 min at room temperature with 0.4 μL of each compound (final concentration: 200 μmol/L-1 pmol/L) dissolved in DMSO. Then, fluorescent substrate (FL-peptide 27, 760424, PerkinElmer, final concentration: 1.5 μmol/L) and ATP (final concentration 500 μmol/L) dissolved in the assay buffer was added in each well. After the incubation of 120 min at 37° C., fifteen μL of termination buffer (100 mmol/L HEPES, 40 mmol/L ethylenediaminetetraacetic acid (EDTA), 10 mmol/L magnecium chloride, 0.003 vol % Brij-35, 0.004 vol % Tween20, 1 mmol/L DTT and 0.16 vol % Coating Reagent 3) was added in each well to stop the enzyme reaction. Fluorescent intensities (FI) of phosphorylated and non-phosphorylated fluorescent substrates were measured by LabChip EZReader II (Caliper LifeSciences, Inc.), and conversion ratio (CR) was calculated by the following formula-1. […] The inhibitory effect of each compound on TrkA phosphorylation was calculated by the following formula-2. […]

Amino acid sequences for entries named in this document (tags omitted). Residues count along the entry.
UniProt P04629, 440-796 limits assumed: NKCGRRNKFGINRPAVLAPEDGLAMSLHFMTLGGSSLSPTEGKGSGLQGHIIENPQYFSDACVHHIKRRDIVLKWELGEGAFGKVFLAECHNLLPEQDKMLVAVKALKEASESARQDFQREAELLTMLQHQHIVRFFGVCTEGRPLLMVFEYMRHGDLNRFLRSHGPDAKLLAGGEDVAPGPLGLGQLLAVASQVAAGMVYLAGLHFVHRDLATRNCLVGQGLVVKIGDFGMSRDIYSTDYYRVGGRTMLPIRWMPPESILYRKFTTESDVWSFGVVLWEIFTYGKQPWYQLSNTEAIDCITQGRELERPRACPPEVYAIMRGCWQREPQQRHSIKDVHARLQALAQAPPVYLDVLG

Work on `COCCN1C[C@@H](NC(=O)Nc2c(C)c(-c3cnc4c(c3)CN(C)C4=O)nn2-c2ccccc2)[C@H](c2cnc(F)c(F)c2)O1` yielded an IC50 (Table 155, human TrkA inhibition) of under 100 nM.

With `CCN1C[C@@H](NC(=O)Nc2c(C)c(-c3ccc(=O)n(C)c3)nn2-c2ccccc2)[C@H](c2ccc(F)c(F)c2)O1` (relative stereo) the IC50 (Table 156, human TrkA inhibition) was under 100 nM.

Source: US10640495B2, “Heterocycle derivatives having TrkA inhibitory activity” (Shionogi & Co., Ltd., priority 2015, dated 2020)
